Results as given in article PMC12678819, “Targeting bacterial kinases as a strategy to counteract antibiotic resistance” (2025).

The chains behind the UniProt entries cited, without tags or fusion partners. Where a name states a change or a piece, a line headed by the entry shows the natural chain unless it says otherwise. Residues count along the entry.
UniProt Q13873, 203-504 limits assumed: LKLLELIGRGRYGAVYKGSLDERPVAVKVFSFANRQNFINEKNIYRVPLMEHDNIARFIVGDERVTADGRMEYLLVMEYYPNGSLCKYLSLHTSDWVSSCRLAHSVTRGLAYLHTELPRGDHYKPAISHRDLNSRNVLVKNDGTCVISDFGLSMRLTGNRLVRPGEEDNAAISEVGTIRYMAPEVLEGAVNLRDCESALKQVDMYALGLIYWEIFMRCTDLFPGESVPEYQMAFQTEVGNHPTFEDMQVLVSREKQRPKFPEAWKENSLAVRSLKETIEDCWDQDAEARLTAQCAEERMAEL
UniProt P15056, 457-717 limits assumed: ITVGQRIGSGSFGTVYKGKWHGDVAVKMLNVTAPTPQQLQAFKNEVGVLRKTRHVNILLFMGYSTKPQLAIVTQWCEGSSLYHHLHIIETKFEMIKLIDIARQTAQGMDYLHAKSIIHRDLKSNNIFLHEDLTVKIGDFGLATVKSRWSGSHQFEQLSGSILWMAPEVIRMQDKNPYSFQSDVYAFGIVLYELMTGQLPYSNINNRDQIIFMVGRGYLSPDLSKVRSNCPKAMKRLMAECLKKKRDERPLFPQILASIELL
UniProt O14936, 12-276 limits assumed: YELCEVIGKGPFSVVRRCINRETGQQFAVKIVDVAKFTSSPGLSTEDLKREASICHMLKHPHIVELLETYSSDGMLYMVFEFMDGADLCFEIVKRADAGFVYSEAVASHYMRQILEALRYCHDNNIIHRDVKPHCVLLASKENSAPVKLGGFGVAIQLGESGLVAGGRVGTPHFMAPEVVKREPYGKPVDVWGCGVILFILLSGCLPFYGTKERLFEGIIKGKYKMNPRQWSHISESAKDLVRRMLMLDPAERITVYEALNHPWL
UniProt Q00532, 4-287 limits assumed: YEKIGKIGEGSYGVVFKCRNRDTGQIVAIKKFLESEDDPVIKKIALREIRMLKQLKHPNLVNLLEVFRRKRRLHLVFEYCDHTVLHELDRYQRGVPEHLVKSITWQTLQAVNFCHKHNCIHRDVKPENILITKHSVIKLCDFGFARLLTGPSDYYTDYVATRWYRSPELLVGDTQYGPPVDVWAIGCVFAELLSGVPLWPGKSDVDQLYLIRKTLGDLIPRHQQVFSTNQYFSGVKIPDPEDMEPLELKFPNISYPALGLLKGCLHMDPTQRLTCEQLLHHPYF
UniProt P48730, 9-277 limits assumed: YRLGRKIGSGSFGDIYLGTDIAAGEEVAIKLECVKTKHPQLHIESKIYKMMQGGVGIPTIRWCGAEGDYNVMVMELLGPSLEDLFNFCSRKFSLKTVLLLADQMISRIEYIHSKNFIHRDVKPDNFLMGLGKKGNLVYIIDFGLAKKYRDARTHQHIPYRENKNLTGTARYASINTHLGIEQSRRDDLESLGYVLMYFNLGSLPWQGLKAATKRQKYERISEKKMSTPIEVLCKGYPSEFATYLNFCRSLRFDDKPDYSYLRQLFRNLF
UniProt O94768, 25-329 limits assumed: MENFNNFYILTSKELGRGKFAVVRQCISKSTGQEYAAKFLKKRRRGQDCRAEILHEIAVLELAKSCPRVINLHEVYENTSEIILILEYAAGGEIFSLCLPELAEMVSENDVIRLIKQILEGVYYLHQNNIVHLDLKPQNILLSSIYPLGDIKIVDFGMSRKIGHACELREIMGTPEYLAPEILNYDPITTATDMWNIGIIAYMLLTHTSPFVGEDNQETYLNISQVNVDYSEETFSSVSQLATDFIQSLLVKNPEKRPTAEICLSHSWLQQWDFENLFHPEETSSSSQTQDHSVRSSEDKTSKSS
UniProt P17948, 801-1158 limits assumed: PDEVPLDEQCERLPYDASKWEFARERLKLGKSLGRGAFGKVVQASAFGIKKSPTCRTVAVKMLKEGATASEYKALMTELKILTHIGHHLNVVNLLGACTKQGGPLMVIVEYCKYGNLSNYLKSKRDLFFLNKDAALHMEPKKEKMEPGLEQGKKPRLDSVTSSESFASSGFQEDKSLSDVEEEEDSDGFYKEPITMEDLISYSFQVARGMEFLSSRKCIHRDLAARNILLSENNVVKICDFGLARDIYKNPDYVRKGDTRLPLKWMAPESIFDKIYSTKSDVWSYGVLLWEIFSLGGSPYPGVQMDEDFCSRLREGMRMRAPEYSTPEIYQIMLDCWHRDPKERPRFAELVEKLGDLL
UniProt O14976, 14-351 limits assumed: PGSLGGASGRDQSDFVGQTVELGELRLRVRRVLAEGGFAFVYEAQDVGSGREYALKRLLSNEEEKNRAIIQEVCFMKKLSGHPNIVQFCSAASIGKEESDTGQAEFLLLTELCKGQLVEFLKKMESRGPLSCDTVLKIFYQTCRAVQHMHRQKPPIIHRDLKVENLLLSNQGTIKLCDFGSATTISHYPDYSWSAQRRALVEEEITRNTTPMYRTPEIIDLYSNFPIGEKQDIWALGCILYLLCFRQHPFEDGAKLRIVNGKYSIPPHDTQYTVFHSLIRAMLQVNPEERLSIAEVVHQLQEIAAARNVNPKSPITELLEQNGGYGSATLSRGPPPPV
UniProt P53779, 39-402 limits assumed: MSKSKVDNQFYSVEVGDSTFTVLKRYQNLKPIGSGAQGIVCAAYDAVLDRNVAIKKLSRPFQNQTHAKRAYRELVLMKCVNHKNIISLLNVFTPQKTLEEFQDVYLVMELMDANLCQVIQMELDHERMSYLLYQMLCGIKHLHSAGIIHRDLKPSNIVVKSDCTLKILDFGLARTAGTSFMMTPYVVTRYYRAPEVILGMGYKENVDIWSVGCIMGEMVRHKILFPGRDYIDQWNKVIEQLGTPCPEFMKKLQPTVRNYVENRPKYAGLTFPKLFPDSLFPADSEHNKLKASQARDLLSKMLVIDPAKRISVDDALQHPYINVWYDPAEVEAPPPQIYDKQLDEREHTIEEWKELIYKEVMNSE
UniProt O14733, 120-380 limits assumed: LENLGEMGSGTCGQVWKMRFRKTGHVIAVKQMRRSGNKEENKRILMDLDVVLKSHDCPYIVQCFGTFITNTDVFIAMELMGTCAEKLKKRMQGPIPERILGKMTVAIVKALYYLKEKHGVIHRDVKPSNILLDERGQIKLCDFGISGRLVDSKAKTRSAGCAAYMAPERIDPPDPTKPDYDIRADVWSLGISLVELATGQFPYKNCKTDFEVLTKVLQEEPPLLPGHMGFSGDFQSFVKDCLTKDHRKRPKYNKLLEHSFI
UniProt P49137, 64-325 limits assumed: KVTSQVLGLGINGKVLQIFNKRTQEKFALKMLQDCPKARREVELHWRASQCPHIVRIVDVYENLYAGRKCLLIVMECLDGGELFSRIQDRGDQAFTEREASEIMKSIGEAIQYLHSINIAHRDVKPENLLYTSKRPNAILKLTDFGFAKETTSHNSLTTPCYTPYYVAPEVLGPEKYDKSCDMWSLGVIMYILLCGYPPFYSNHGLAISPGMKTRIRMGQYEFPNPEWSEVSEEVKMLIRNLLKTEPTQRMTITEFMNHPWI
UniProt Q96L34, 59-310 limits assumed: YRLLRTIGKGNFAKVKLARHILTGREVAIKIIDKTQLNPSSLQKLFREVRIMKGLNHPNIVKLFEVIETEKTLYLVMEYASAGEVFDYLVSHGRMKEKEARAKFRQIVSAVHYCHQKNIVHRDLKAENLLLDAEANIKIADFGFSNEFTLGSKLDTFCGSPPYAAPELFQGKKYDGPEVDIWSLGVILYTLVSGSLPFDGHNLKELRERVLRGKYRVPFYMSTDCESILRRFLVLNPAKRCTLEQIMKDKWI
UniProt Q9Y6E0, 36-286 limits assumed: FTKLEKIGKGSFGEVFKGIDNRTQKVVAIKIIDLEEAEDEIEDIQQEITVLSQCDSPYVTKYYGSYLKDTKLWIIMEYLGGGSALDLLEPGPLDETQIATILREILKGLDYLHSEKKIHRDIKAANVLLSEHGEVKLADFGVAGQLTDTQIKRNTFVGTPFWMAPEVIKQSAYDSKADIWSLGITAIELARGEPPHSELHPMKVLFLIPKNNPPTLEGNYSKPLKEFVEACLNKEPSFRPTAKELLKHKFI
UniProt Q8TDX7, 34-299 limits assumed: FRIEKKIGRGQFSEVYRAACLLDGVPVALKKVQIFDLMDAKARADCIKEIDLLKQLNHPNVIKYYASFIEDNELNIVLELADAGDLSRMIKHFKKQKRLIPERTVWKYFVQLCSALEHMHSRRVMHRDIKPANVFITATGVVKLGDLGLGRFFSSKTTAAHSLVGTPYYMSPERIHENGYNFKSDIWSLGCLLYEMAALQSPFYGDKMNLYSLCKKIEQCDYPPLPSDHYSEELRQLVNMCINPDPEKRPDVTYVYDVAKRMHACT
UniProt P16083: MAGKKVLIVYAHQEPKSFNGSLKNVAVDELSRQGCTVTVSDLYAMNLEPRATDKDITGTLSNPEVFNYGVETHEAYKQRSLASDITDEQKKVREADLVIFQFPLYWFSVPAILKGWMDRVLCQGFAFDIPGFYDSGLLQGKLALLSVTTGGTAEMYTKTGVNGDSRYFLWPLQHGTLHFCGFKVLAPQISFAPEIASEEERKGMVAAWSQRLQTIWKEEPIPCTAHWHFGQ
UniProt P11309, whole entry, looked up: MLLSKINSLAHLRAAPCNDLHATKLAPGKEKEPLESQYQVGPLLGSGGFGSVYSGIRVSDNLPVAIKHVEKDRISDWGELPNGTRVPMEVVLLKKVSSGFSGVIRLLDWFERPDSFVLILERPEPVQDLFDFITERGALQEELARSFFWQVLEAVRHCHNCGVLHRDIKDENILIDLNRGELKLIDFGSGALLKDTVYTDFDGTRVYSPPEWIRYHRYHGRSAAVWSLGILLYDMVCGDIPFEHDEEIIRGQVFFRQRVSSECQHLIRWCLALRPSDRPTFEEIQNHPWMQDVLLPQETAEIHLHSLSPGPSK
UniProt Q9H2G2, 19-320 limits assumed: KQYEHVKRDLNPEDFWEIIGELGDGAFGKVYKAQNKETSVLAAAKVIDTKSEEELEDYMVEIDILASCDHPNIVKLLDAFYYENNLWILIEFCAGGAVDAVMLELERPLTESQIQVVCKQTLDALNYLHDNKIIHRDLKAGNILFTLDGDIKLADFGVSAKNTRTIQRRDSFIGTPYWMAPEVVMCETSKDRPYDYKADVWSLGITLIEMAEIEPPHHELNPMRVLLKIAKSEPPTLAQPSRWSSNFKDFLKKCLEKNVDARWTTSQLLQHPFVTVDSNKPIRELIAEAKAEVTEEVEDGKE
UniProt O15164: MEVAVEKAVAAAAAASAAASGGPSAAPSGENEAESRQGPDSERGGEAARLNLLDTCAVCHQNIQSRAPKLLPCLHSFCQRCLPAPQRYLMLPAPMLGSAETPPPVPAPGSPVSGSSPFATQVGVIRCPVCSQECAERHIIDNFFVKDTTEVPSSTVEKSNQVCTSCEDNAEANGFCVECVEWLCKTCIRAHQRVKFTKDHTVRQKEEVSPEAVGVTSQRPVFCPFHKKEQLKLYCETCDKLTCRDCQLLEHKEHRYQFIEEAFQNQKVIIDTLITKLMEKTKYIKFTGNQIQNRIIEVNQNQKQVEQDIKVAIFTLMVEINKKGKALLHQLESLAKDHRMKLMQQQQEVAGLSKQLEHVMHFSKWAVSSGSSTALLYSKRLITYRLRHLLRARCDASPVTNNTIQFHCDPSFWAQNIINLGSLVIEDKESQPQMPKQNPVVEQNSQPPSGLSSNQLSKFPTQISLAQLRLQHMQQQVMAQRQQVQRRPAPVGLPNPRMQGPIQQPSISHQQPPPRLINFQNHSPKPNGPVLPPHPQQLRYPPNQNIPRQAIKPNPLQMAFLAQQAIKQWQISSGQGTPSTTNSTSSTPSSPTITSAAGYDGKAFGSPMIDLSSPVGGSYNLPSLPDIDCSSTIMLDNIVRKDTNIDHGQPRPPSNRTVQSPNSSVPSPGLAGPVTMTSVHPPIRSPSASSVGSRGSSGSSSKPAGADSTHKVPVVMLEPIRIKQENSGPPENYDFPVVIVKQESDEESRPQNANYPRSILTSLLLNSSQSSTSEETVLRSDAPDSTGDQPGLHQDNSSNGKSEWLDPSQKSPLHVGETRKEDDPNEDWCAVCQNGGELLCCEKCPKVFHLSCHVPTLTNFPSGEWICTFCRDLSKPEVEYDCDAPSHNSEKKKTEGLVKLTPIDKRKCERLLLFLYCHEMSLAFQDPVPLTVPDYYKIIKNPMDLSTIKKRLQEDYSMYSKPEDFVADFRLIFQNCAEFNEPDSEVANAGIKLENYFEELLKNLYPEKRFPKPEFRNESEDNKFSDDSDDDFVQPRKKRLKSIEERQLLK
UniProt O75385, 1-283 limits assumed: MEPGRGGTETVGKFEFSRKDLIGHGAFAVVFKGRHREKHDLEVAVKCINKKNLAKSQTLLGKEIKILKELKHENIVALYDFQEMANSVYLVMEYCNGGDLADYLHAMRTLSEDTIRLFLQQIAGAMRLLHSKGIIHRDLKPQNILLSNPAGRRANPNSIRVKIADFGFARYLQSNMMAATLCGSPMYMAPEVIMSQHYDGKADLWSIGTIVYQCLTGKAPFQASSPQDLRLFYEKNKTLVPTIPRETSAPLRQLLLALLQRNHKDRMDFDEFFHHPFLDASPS
UniProt Q9H4A3, 206-483 limits assumed: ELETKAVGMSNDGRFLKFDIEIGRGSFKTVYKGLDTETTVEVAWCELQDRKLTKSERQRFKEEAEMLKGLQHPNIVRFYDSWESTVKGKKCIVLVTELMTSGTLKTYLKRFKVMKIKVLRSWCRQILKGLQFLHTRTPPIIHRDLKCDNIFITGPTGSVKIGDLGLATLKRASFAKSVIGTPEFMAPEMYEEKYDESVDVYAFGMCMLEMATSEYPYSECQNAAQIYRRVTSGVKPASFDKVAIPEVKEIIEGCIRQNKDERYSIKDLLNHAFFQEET

Tests used:
Assay in all cases: DSF kinase panel
Details in all cases: 10 μM
[1] = target: AAK1 (Homo sapiens, UniProt Q2M2I8)
[2] = target: BMPR2 (Homo sapiens, UniProt Q13873)
[3] = target: BRAF (Homo sapiens, UniProt P15056)
[4] = target: BRD4 (Homo sapiens, UniProt O60885)
[5] = target: BRPF1 (Homo sapiens, UniProt P55201)
[6] = target: CAMK1D (Homo sapiens, UniProt Q8IU85)
[7] = target: CAMK4 (Homo sapiens, UniProt Q16566)
[8] = target: CASK (Homo sapiens, UniProt O14936)
[9] = target: CDKL1 (Homo sapiens, UniProt Q00532)
[10] = target: CK1d (Homo sapiens, UniProt P48730)
[11] = target: CK2a1 (Homo sapiens, UniProt P68400)
[12] = target: DCAMKL1 (Homo sapiens, UniProt O15075)
[13] = target: DRAK1 (Homo sapiens, UniProt Q9UEE5)
[14] = target: DRAK2 (Homo sapiens, UniProt O94768)
[15] = target: DYRK1A (Homo sapiens, UniProt Q13627)
[16] = target: EPHA4 (Homo sapiens, UniProt P54764)
[17] = target: EPHA5 (Homo sapiens, UniProt P54756)
[18] = target: FLT1 (Homo sapiens, UniProt P17948)
[19] = target: GAK (Homo sapiens, UniProt O14976)
[20] = target: GPRK5 (Homo sapiens, UniProt P34947)
[21] = target: JNK3 (Homo sapiens, UniProt P53779)
[22] = target: LOK (Homo sapiens, UniProt O94804)
[23] = target: MAP2K7 (Homo sapiens, UniProt O14733)
[24] = target: MAPK15 (Homo sapiens, UniProt Q8TD08)
[25] = target: MAPKAPK2 (Homo sapiens, UniProt P49137)
[26] = target: MARK3 (Homo sapiens, UniProt P27448)
[27] = target: MARK4 (Homo sapiens, UniProt Q96L34)
[28] = target: MST3 (Homo sapiens, UniProt Q9Y6E0)
[29] = target: MYT1 (Homo sapiens, UniProt Q99640)
[30] = target: NEK7 (Homo sapiens, UniProt Q8TDX7)
[31] = target: NQO2 (Homo sapiens, UniProt P16083)
[32] = target: OSR1 (Homo sapiens, UniProt O95747)
[33] = target: PAK4 (Homo sapiens, UniProt O96013)
[34] = target: PIM1 (Homo sapiens, UniProt P11309)
[35] = target: PLK4 (Homo sapiens, UniProt O00444)
[36] = target: SLK (Homo sapiens, UniProt Q9H2G2)
[37] = target: SRC (Homo sapiens, UniProt P12931)
[38] = target: STLK3 (Homo sapiens, UniProt Q9UEW8)
[39] = target: TIF1 (Homo sapiens, UniProt O15164)
[40] = target: ULK1 (Homo sapiens, UniProt O75385)
[41] = target: VRK1 (Homo sapiens, UniProt Q99986)
[42] = target: WNK1 (Homo sapiens, UniProt Q9H4A3)

Clc1cnc2[nH]ccc2c1-c1ccn[nH]1
ΔTm AAK1 [1]: 5.4 °C | ΔTm BMPR2 [2]: 4.0 °C | ΔTm BRAF [3]: 1.0 °C | ΔTm BRD4 [4]: 1.1 °C | ΔTm BRPF1 [5]: -0.8 °C | ΔTm CAMK1D [6]: 1.0 °C | ΔTm CAMK4 [7]: -1.3 °C | ΔTm CASK [8]: 0.1 °C | ΔTm CDKL1 [9]: -0.3 °C | ΔTm CK1d [10]: 1.8 °C | ΔTm CK2a1 [11]: 0.7 °C | ΔTm DCAMKL1 [12]: -0.9 °C | ΔTm DRAK1 [13]: 3.0 °C | ΔTm DRAK2 [14]: 0.5 °C | ΔTm DYRK1A [15]: 1.4 °C | ΔTm EPHA4 [16]: 0.3 °C | ΔTm EPHA5 [17]: -0.6 °C | ΔTm FLT1 [18]: 3.0 °C | ΔTm GAK [19]: 1.5 °C | ΔTm GPRK5 [20]: 2.3 °C | ΔTm JNK3 [21]: 1.5 °C | ΔTm LOK [22]: -1.6 °C | ΔTm MAP2K7 [23]: -0.3 °C | ΔTm MAPK15 [24]: 1.6 °C | ΔTm MAPKAPK2 [25]: -0.3 °C | ΔTm MARK3 [26]: 1.5 °C | ΔTm MARK4 [27]: 1.1 °C | ΔTm MST3 [28]: -1.5 °C | ΔTm MYT1 [29]: -0.7 °C | ΔTm NEK7 [30]: -1.1 °C | ΔTm NQO2 [31]: -0.9 °C | ΔTm OSR1 [32]: -0.7 °C | ΔTm PAK4 [33]: 3.6 °C | ΔTm PIM1 [34]: 0.7 °C | ΔTm PLK4 [35]: 3.6 °C | ΔTm SLK [36]: -0.4 °C | ΔTm SRC [37]: -0.2 °C | ΔTm STLK3 [38]: 1.5 °C | ΔTm TIF1 [39]: -0.4 °C | ΔTm ULK1 [40]: 2.2 °C | ΔTm VRK1 [41]: -0.4 °C | ΔTm WNK1 [42]: -0.2 °C

NC(=O)Cn1cc(-c2c(Cl)cnc3[nH]ccc23)nn1
ΔTm AAK1 [1]: 4.8 °C | ΔTm BMPR2 [2]: 3.8 °C | ΔTm BRAF [3]: 0.9 °C | ΔTm BRD4 [4]: 0.8 °C | ΔTm BRPF1 [5]: -1.4 °C | ΔTm CAMK1D [6]: 1.4 °C | ΔTm CAMK4 [7]: -1.0 °C | ΔTm CASK [8]: -0.1 °C | ΔTm CDKL1 [9]: -0.1 °C | ΔTm CK1d [10]: 3.8 °C | ΔTm CK2a1 [11]: 0.7 °C | ΔTm DCAMKL1 [12]: -0.5 °C | ΔTm DRAK1 [13]: 4.5 °C | ΔTm DRAK2 [14]: 1.1 °C | ΔTm DYRK1A [15]: 1.3 °C | ΔTm EPHA4 [16]: -0.2 °C | ΔTm EPHA5 [17]: -0.7 °C | ΔTm FLT1 [18]: 4.6 °C | ΔTm GAK [19]: 2.4 °C | ΔTm GPRK5 [20]: 1.0 °C | ΔTm JNK3 [21]: 1.4 °C | ΔTm LOK [22]: -1.9 °C | ΔTm MAP2K7 [23]: -0.4 °C | ΔTm MAPK15 [24]: 2.6 °C | ΔTm MAPKAPK2 [25]: 0.0 °C | ΔTm MARK3 [26]: 1.9 °C | ΔTm MARK4 [27]: 1.7 °C | ΔTm MST3 [28]: -1.8 °C | ΔTm MYT1 [29]: -0.7 °C | ΔTm NEK7 [30]: -1.0 °C | ΔTm NQO2 [31]: -0.7 °C | ΔTm OSR1 [32]: -0.1 °C | ΔTm PAK4 [33]: 1.7 °C | ΔTm PIM1 [34]: 0.2 °C | ΔTm PLK4 [35]: 2.7 °C | ΔTm SLK [36]: -0.6 °C | ΔTm SRC [37]: -0.2 °C | ΔTm STLK3 [38]: 0.9 °C | ΔTm TIF1 [39]: -0.5 °C | ΔTm ULK1 [40]: 1.8 °C | ΔTm VRK1 [41]: -0.5 °C | ΔTm WNK1 [42]: -0.2 °C

C[C@@H](O)Cn1cc(-c2c(Cl)cnc3[nH]ccc23)nn1
ΔTm AAK1 [1]: 4.8 °C | ΔTm BMPR2 [2]: 5.4 °C | ΔTm BRAF [3]: 1.1 °C | ΔTm BRD4 [4]: 0.8 °C | ΔTm BRPF1 [5]: -1.2 °C | ΔTm CAMK1D [6]: 0.9 °C | ΔTm CAMK4 [7]: 0.1 °C | ΔTm CASK [8]: -0.5 °C | ΔTm CDKL1 [9]: 0.5 °C | ΔTm CK1d [10]: 4.7 °C | ΔTm CK2a1 [11]: 1.3 °C | ΔTm DCAMKL1 [12]: 0.0 °C | ΔTm DRAK1 [13]: 2.9 °C | ΔTm DRAK2 [14]: 1.8 °C | ΔTm DYRK1A [15]: 1.2 °C | ΔTm EPHA4 [16]: 0.5 °C | ΔTm EPHA5 [17]: -0.6 °C | ΔTm FLT1 [18]: 3.7 °C | ΔTm GAK [19]: 2.6 °C | ΔTm GPRK5 [20]: 0.9 °C | ΔTm JNK3 [21]: 2.1 °C | ΔTm LOK [22]: -1.6 °C | ΔTm MAP2K7 [23]: -0.6 °C | ΔTm MAPK15 [24]: 3.0 °C | ΔTm MAPKAPK2 [25]: 0.1 °C | ΔTm MARK3 [26]: 2.6 °C | ΔTm MARK4 [27]: 2.0 °C | ΔTm MST3 [28]: -1.6 °C | ΔTm MYT1 [29]: -0.6 °C | ΔTm NEK7 [30]: -1.2 °C | ΔTm NQO2 [31]: -0.7 °C | ΔTm OSR1 [32]: 0.4 °C | ΔTm PAK4 [33]: 2.7 °C | ΔTm PIM1 [34]: 0.6 °C | ΔTm PLK4 [35]: 3.5 °C | ΔTm SLK [36]: -0.9 °C | ΔTm SRC [37]: -0.1 °C | ΔTm STLK3 [38]: 0.9 °C | ΔTm TIF1 [39]: -0.5 °C | ΔTm ULK1 [40]: 2.8 °C | ΔTm VRK1 [41]: -0.4 °C | ΔTm WNK1 [42]: 0.3 °C

C[C@H](O)Cn1cc(-c2c(Cl)cnc3[nH]ccc23)nn1
ΔTm AAK1 [1]: 5.1 °C | ΔTm BMPR2 [2]: 5.3 °C | ΔTm BRAF [3]: 1.0 °C | ΔTm BRD4 [4]: 1.7 °C | ΔTm BRPF1 [5]: -0.1 °C | ΔTm CAMK1D [6]: 1.3 °C | ΔTm CAMK4 [7]: -2.5 °C | ΔTm CASK [8]: 0.1 °C | ΔTm CDKL1 [9]: 0.6 °C | ΔTm CK1d [10]: 3.9 °C | ΔTm CK2a1 [11]: 1.0 °C | ΔTm DCAMKL1 [12]: 0.6 °C | ΔTm DRAK1 [13]: 4.0 °C | ΔTm DRAK2 [14]: 2.2 °C | ΔTm DYRK1A [15]: 1.4 °C | ΔTm EPHA4 [16]: 0.2 °C | ΔTm EPHA5 [17]: -0.4 °C | ΔTm FLT1 [18]: 3.8 °C | ΔTm GAK [19]: 3.1 °C | ΔTm GPRK5 [20]: 1.1 °C | ΔTm JNK3 [21]: 1.9 °C | ΔTm LOK [22]: -1.1 °C | ΔTm MAP2K7 [23]: 0.0 °C | ΔTm MAPK15 [24]: 3.2 °C | ΔTm MAPKAPK2 [25]: 0.5 °C | ΔTm MARK3 [26]: 2.5 °C | ΔTm MARK4 [27]: 2.0 °C | ΔTm MST3 [28]: -1.0 °C | ΔTm MYT1 [29]: -0.7 °C | ΔTm NEK7 [30]: -0.6 °C | ΔTm NQO2 [31]: -0.3 °C | ΔTm OSR1 [32]: 0.5 °C | ΔTm PAK4 [33]: 2.5 °C | ΔTm PIM1 [34]: 0.7 °C | ΔTm PLK4 [35]: 3.8 °C | ΔTm SLK [36]: -0.2 °C | ΔTm SRC [37]: 0.2 °C | ΔTm STLK3 [38]: 1.3 °C | ΔTm TIF1 [39]: -0.4 °C | ΔTm ULK1 [40]: 2.8 °C | ΔTm VRK1 [41]: -0.1 °C | ΔTm WNK1 [42]: -0.2 °C
